Results taken from BindingDB's records for PubMed 6123593 (Eli Lilly, 1982).

Sequences of proteins named here, by UniProt entry; tags and fusion partners are left off.
UniProt P31652, whole entry: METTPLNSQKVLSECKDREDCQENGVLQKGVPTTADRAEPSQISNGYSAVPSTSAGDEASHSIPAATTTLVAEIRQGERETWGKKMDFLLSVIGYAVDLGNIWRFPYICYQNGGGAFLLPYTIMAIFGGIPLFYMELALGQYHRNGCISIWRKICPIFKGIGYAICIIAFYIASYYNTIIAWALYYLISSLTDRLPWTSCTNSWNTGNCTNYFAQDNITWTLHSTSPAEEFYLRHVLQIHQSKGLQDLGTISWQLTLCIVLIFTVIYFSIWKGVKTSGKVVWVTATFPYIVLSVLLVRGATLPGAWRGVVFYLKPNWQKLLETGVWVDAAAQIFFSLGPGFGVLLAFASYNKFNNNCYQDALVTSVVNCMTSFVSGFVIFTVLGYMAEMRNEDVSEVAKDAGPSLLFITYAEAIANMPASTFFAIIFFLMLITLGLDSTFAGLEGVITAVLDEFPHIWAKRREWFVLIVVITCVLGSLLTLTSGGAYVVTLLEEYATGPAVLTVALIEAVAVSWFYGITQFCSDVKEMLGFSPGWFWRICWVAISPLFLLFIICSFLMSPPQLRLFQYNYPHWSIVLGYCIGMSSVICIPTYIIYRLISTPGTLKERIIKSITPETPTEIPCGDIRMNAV
UniProt P23977, whole entry: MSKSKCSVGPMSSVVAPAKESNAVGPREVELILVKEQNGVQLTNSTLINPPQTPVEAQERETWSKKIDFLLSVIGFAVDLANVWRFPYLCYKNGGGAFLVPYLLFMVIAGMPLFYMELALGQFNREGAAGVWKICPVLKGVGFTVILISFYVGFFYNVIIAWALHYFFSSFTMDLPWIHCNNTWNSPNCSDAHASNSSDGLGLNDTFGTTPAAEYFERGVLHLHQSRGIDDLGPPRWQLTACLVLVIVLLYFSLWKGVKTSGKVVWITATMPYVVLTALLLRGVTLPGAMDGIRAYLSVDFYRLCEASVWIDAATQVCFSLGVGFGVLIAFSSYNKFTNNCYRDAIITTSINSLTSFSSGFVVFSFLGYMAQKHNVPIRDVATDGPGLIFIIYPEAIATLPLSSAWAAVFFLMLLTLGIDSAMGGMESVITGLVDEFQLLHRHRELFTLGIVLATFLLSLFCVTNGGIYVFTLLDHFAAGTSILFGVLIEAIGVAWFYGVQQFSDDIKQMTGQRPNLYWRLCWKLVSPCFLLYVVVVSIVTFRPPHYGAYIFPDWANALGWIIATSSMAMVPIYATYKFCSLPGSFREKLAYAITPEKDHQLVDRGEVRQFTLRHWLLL

Assays:
[1] = biological target: Sodium-dependent serotonin transporter (Rattus norvegicus, UniProt P31652)
[2] = biological target: Sodium-dependent dopamine transporter (Rattus norvegicus, UniProt P23977)

Compound	Ki [1]	Ki [2]
CNCCC(Oc1ccccc1OC)c1ccccc1 (stereo not drawn) [3-(2-methoxyphenoxy)-N-methyl-3-phenylpropan-1-amine]	690 nM and 1000 nM	1750 nM and 2450 nM and 360 nM
CNCCC(Oc1ccccc1C)c1ccccc1 (stereo not drawn) [Methyl-(3-phenyl-3-o-tolyloxy-propyl)-amine(tomoxetine)]	750 nM	–

Where “and” joins values, the source holds several entries; their conditions need not be identical. Equal values may be shown once.
